Our source for the Kd values is patent US20030133931A1 (priority 2001, published 2003).

Protein sequences, listed by entry. Tags and fused reporters are not part of them. Lines headed by an entry give the natural chain unless they say otherwise; changes in a name come on top.
UniProt Q91ZY1: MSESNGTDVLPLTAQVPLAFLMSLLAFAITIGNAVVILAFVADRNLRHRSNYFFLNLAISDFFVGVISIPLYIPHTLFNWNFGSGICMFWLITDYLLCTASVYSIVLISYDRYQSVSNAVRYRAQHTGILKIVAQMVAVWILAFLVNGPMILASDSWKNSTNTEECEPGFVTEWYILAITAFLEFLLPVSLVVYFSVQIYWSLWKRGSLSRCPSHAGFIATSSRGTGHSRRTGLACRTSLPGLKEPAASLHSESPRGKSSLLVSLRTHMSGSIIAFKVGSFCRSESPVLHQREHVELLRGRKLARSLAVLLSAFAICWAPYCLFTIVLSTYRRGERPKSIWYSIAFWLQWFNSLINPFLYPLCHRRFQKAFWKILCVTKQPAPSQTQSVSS

The target in this assay is rat histamine H4 receptor (Rattus norvegicus, UniProt Q91ZY1). The settings on record: read-out: ^3H-histamine Kd, Scatchard plot.

Turning to ^3H-histamine, the Kd (commonly a measure of binding affinity in units of concentration) came to 105 nM.
